From the kinase profiling compilation of Christmann-Franck et al. (2016)

By UniProt entry, the sequences of proteins in these tests, tags left out.
UniProt Q05397, whole entry, looked up: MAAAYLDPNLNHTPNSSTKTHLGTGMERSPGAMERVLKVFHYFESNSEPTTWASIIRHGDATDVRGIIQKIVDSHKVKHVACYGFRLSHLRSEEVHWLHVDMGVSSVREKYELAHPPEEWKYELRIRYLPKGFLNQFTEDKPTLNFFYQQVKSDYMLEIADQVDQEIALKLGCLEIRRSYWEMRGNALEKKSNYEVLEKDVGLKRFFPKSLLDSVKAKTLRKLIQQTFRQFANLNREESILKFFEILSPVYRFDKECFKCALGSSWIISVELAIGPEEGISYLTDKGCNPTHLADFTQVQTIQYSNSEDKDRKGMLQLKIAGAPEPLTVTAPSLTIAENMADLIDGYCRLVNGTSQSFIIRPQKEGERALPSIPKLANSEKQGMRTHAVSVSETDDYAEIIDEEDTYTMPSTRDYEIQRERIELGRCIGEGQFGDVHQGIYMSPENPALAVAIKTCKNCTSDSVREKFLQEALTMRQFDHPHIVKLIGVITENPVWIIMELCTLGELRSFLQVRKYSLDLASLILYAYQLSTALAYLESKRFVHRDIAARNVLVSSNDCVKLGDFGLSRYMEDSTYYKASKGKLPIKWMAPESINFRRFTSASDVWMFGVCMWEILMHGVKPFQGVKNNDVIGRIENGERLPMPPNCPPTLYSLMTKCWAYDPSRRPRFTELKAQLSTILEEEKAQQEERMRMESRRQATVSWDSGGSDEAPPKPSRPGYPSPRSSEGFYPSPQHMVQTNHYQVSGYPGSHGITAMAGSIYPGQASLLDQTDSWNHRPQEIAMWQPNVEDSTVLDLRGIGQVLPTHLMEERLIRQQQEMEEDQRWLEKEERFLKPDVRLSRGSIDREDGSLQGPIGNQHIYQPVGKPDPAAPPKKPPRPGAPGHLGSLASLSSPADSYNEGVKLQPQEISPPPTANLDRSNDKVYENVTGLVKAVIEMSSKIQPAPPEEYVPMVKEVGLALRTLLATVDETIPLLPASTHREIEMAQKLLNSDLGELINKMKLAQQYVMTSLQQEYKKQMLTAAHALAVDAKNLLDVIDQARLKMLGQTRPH
UniProt P42684, whole entry, looked up: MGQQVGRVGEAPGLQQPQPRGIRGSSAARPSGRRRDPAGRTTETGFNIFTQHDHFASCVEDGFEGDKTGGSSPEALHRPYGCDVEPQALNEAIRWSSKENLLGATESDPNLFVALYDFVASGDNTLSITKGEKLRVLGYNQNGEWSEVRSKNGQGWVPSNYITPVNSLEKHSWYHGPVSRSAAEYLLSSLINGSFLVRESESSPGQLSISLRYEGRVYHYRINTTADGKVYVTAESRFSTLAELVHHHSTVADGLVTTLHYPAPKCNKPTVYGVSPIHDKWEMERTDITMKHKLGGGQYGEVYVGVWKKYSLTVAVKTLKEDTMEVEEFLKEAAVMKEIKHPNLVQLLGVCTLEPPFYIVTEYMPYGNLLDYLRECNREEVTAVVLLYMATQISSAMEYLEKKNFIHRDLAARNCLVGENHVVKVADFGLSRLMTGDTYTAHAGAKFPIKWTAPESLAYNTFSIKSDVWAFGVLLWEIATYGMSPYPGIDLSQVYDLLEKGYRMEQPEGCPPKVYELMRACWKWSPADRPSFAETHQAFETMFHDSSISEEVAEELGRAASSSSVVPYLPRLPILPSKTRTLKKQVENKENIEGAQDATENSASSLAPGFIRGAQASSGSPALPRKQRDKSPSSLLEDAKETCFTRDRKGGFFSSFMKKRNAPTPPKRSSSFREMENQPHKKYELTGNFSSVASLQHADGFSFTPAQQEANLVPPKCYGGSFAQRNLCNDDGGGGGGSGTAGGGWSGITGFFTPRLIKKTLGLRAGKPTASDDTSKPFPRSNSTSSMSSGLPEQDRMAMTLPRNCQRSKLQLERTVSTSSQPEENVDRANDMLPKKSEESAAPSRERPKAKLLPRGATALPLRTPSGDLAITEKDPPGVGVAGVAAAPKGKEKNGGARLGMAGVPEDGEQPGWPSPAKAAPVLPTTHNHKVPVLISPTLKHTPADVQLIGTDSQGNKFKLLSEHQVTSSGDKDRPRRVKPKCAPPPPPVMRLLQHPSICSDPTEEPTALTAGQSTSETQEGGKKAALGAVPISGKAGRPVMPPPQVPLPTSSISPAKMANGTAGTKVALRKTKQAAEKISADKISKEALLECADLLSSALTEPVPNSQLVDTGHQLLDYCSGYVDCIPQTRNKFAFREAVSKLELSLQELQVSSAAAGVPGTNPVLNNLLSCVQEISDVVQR
UniProt P29317, whole entry, looked up: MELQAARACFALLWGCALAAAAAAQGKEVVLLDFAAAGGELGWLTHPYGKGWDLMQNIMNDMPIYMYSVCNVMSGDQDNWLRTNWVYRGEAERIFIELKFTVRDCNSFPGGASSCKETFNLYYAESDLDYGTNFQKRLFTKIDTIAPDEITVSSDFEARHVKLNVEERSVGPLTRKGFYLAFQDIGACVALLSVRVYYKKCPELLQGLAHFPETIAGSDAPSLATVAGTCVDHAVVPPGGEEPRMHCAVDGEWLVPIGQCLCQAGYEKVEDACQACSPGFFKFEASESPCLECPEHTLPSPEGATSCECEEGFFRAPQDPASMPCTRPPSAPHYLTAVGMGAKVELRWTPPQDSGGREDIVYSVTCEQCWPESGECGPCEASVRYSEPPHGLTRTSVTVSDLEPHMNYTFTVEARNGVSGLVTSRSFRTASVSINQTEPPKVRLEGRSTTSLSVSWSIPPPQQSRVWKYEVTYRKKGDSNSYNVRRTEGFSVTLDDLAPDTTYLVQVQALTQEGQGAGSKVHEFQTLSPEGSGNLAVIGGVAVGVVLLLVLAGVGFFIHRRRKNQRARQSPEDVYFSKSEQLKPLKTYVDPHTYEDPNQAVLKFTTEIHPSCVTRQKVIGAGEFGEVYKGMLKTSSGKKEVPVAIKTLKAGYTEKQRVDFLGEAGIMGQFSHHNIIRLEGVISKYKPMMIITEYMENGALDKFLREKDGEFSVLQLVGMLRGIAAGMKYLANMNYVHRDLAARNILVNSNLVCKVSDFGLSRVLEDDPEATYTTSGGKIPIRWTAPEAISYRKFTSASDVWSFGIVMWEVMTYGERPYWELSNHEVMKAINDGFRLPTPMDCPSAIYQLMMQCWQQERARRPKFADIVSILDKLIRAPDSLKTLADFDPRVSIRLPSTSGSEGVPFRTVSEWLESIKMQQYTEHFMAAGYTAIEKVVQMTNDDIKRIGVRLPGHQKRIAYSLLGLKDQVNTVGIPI

Columns and labels:
Assay in all cases: radiometric filter-binding kinase assay, Kinase HotSpot
Conditions in all cases: compound 0.5 µM; ATP 10 µM
PTK2 (human) = PTK2 (human) (UniProt Q05397)
ABL2 (human) = ABL2 (human) (UniProt P42684)
EPHA2 (human) = EPHA2 (human) (UniProt P29317)

O=C1c2ccccc2-c2nc3nnnn3nc21
residual activity (PTK2 (human)): 87%

CO[C@@H]1[C@H](N(C)C(=O)c2ccccc2)C[C@H]2O[C@]1(C)n1c3ccccc3c3c4c(c5c6ccccc6n2c5c31)C(=O)NC4
residual activity (ABL2 (human)): 76.3%

Cc1cncc2cccc(S(=O)(=O)N3CCCN(C(=O)CN)C[C@H]3C)c12
residual activity (EPHA2 (human)): 92%
